# Assay results: US20090010923A1, “TREATMENT OF CANCER WITH ANTI-MUSCARINIC RECEPTOR AGENTS” (University of Maryland, Baltimore, priority 2007, published 2009)
# Test system: M1R and M3R
# Description: Muscarinic receptor subtypes were expressed in murine gastric chief cells using M1R^−/−, M3R^−/− and M1/3R^−/− mice. […] The mice were generated using gene targeting.
smiles,measurement,setting,value
C[N+](C)(C)CCOC(N)=O [carbachol],decrease in maximal carbachol-induced pepsinogen secretion,M1R-/- mouse gastric glands,approx. 25%
same,"carbachol potency or efficacy, pepsinogen secretion",M3R-/- compared to WT mouse gastric glands,no difference
same,agonist-induced pepsinogen secretion,glands from M1/3R-/- mice,eliminated
